Molecular target: T1, hAChE (Homo sapiens, UniProt P22303)
T1 construct: 8.3 μL of either blood cell lysate or plasma dilutions; from tissue; host or cells: blood cell lysate
Test: biochemical
Experimental: The hAChE and hBuChE activities were determined using a modified method of Ellman, as described. Briefly, hAChE and hBuChE activities were determined using a modified method of Ellman, with acetylthiocholine iodide (ATChI) and butyrylthiocholine iodide (BuTChI) as substrates, respectively. Briefly, 8.3 μL of either blood cell lysate or plasma dilutions (at least six different concentrations), 283 μL of 5 mM 5,5′-dithiobis-2-nitrobenzoic acid (DTNB) and 8.3 μL of the sample dilution in dimethyl sulfoxide (DMSO) (40 mM, 10 mM, 4 mM, 1 mM, 0.4 mM, and 0 mM) were added to the semi-micro cuvette. The reaction was initiated by addition of 33.3 μL 10 mM substrate (ATChI or BuTChI). The final proportion of DTNB and substrate was […]. The increase of absorbance (ΔA) at 436 nm for AChE and 412 nm for BuChE was measured for 1 min at 37 °C using a spectrophotometer (Synergy^TM HT Multi-Detection Microplate Reader). Each measurement was repeated six times for every concentration of enzyme preparation.

The chains behind the UniProt entries cited, without tags or fusion partners. A line that says so, or that is headed by a name, gives the form on record, which may keep a tag or linker.
UniProt P22303, other isoform, or with tags, fused parts or gaps: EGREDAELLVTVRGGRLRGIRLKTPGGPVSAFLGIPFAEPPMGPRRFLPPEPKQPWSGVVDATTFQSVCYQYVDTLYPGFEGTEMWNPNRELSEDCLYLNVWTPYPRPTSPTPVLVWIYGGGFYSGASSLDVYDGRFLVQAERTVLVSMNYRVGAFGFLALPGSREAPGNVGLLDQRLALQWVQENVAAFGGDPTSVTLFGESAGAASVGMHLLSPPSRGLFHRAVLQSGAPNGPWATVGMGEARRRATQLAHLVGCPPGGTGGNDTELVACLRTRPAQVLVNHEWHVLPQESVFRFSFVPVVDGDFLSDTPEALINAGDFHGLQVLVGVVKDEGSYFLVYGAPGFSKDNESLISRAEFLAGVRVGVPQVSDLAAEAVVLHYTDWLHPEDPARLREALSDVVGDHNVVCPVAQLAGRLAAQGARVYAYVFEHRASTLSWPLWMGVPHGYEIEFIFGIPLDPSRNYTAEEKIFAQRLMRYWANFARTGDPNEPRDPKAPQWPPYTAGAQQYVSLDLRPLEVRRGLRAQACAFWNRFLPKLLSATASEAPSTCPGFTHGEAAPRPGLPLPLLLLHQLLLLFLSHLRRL

Structure (SMILES): COc1ccc2cc3[n+](cc2c1OC)CCc1cc2c(cc1-3)OCO2 [Berberine, berberine, reference compound]
- IC50: 720 ± 110 nM
